Where “and” joins values, the source holds several entries; their conditions need not be identical. Identical values can stand only once.
What was measured:
[1] = target: E16K, E16K/N45Y, and E16K/S47N; assay: flow cytometry on cells; yeast surface display; binder variant on EBY100 yeast, 100 nM biotinylated TfR in PBSF pH 7.4 on ice, detected with SAPE; expression by anti-c-Myc FITC; 50,000 singlets
[2] = target: TB14.3A E13V/T78I (S4.7), yeast surface displayed; assay: as above

The chains behind the UniProt entries cited, without tags or fusion partners. Residues count along the entry.
UniProt P02786, 101-760: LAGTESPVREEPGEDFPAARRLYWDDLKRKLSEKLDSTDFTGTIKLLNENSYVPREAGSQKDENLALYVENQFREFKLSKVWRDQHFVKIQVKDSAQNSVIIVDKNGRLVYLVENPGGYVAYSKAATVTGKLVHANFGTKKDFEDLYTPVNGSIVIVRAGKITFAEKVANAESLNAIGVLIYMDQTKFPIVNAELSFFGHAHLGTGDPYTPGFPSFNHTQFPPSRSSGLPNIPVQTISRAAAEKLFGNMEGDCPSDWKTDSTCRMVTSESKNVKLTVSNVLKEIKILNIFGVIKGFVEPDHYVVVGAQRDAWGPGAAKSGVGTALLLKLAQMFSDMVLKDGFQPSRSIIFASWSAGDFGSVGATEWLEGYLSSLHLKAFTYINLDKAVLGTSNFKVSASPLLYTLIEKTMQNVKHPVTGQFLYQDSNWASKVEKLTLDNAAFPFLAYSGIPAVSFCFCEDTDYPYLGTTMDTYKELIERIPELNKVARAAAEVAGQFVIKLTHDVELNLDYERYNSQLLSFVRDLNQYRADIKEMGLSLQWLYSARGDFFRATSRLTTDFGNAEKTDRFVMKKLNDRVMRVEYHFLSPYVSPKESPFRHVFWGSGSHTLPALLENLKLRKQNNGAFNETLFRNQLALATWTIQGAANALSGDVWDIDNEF

binding signal over background (times the background) [1]: 7 and 11
fold binding signal over TB14.3A [2]: 10 fold
Substance: Human transferrin receptor 1 (TfR), avi-tagged, biotinylated (from UniProt P02786 101-760)
